Experiment [1] deals with T1, μ-opioid receptor (Homo sapiens, UniProt P35372). Put plainly: μ-opioid receptor [35S]GTPγS functional assay, HEK-293 or CHO cells. The class given is biochemical. (In general: Binding of GTPγS marks nucleotide exchange on a G protein.)
Experiment [2] deals with T1, μ-opioid receptor. Put plainly: μ-opioid receptor β-Arr2 activity response, U2OS cells. The class given is cell-based.

Amino acid sequences for entries named in this document (tags omitted).
UniProt P35372, whole entry: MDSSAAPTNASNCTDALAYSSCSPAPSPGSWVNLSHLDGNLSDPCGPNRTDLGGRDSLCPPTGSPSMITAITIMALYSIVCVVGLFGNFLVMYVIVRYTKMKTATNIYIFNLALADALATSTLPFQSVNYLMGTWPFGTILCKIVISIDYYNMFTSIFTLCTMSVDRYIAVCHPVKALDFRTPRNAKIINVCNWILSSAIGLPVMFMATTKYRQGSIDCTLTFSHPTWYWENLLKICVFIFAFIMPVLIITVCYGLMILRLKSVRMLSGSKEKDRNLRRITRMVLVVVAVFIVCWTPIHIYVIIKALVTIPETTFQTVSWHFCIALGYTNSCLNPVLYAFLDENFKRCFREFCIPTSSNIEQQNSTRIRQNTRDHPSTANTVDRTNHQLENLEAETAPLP

On to `C[C@H]1[C@H]2Cc3ccc(O)cc3[C@]1(CCN1CCC(N3C(=O)Cc4ccccc43)CC1)CCN2C`, for which the EC50 (usually the concentration needed to bring the measured effect to its halfway point) at μ-opioid receptor [1] (read-out: GTPγS μ EC50) amounted to 12.1 nM; on μ-opioid receptor [2] (read-out: β-Arr2 μ EC50) it was 3.85 nM. On μ-opioid receptor [1] (relative to DAMGO), the “GTPγS μ Emax” value is recorded as 108.7 ± 2.30%. The “β-Arr2 μ Emax” value at μ-opioid receptor [2] is on record as 95.0 ± 3.79%.
